Test results reported in patent publication US7202043B2, “Detecting cell membrane protein endocytosis” (Discover Corporation, priority 2004, dated 2007).

Target: T1, V2 receptor tagged with a FLAG sequence (Homo sapiens, UniProt P30518)
T1 construct: expressed in transfected cells; host or cells: CHO (Chinese Hamster Ovary) cells
Test: Endocytosis assay (Protocol I): enzyme fragment complementation with ED-labeled anti-FLAG antibody, chemiluminescence readout
Format: cell-based
Conditions: CHO cells expressing FLAG-tagged V2 receptor, 50,000 cells/well; agonist 1 μM; incubated 5, 10, 15, 30 or 60 minutes; signal rises up to thirty minutes, decreases after
Description: Cells are suspended in media with 10% fetal bovine serum, plated in a 96-well tissue culture plate, and allowed to grow overnight under standard tissue culture conditions at 37° C. The next day, media is exchanged and replaced with 50 μL serum free media.
10 μL of ED labeled anti-FLAG antibody (145 nM reagent concentration) is added to each well, then the plate is incubated for 1 hour at 37° C. (tissue culture incubator). After the incubation is complete, 10 μL agonist or vehicle (assay buffer without agonist) is added to appropriate wells, and the plate is incubated for an additional 30 minutes at 37° C.
10 μL of Chyrnotrysin Reagent (100 units/mL chymotrypsin, 7 mM EDTA in PBS) is added to all wells, and the plate is incubated for 15 minutes at room temperature. Then 140 μL of Cell Lysis Reagent containing protease inhibitor (0.75% CHAPS, 75 μM chymostatin, 3 mg/mL BSA fragments in a phosphate buffered saline) is added, and incubated for 10 minutes at 37° C. This is followed by the addition of 20 μL of EA Reagent (360 μg/mL EA in a buffered solution with carrier protein) and an incubation of 1 hour at 37° C. In the final step, chemiluminescent substrate (Tropix) is added, incubated at least 20 minutes, and then the signal is read on a luminescence reader. […]

Substance: [Arg8]-Vasopressin [AVP]
- internalization of antibody-ED conjugate bound to FLAG-tagged receptor (RLU vs. incubation time with AVP): increasingly internalized
